Laboratory results from US12590954B2, “Neural stem cell-induced differential medium and induction differentiation method” (IREGENE THERAPEUTICS, CO., LTD., priority 2020, dated 2026).

System: Human pluripotent stem cells
Experiment: CyQuant quantitative detection of cell viability during induction
Type: cell-based
Conditions: different concentrations, long-term culture
Experimental: The Cyquant assay was used to perform the quantitative detection of cell viability, thus investigating the effect of LY2157299 on the physiological state of the cells during long-term culture of the cells; Among them, the LSB method was used as the control group. 96-well light-tight cell culture plates were coated; after the coating was complete, cells were seeded separately at 5×10^4 cell number per well and three sets of parallel replicates were set (the average of three sets was calculated as data) to repeat the procedure of example 2.1. Wherein, the culture procedures described previously were incubated at 37° C. with 5% CO2. Samples were taken on days 1, 5, 10, 15 and 20 for cell viability assay using CyQuant Kit (Invitrogen, cat. No: X12223). The aforementioned assay was operated according to the instructions with a Spectramax i3 Multi-Mode Microplate Reader (VWR, model number: ID3-STD) for data reading. […] Combined with cost factors, the range of recombinant insulin and recombinant serum albumin used by the present invention falls within the range of optimal use.

recombinant serum albumin: protein tested at different concentrations for cell growth
rate of cell proliferation versus concentration (CyQuant): positively correlated with the rate of cell proliferation
